Test results taken from US20140100156A1 (SANOFI, priority 2012, published 2014).
Read-outs that look alike come from different tables or passages of the source.

By UniProt entry, the sequences of proteins in these tests, tags left out. Residues count along the entry.
UniProt P47871, 26-477: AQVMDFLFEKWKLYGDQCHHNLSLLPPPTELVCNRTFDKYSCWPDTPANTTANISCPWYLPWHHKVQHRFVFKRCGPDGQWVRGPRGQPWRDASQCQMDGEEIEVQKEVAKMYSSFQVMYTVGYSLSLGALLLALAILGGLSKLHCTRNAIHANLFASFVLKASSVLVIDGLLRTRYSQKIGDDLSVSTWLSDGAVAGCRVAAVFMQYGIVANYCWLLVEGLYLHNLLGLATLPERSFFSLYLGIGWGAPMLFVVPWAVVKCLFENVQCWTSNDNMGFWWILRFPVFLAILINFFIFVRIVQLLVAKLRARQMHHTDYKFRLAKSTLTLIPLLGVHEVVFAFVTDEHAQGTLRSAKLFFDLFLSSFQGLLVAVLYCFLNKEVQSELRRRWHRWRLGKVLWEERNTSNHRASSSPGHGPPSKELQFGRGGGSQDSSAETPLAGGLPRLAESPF
UniProt P43220, 24-463: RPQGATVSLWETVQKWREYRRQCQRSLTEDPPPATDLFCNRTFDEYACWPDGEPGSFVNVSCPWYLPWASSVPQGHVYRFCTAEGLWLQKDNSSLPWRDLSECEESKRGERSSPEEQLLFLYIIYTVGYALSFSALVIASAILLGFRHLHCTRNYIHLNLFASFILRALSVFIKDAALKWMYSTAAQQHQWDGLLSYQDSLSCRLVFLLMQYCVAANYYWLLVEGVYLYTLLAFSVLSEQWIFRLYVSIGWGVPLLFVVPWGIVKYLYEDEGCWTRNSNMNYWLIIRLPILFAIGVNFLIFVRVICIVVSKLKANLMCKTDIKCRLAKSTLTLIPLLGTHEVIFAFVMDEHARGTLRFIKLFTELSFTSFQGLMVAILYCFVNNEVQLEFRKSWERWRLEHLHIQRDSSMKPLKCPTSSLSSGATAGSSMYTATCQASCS

Columns and labels:
human glucagon receptor = biological target: T1, human glucagon receptor (Homo sapiens, UniProt P47871); assay: cAMP response (HTRF) of HEK-293 cells stably expressing human glucagon receptor; type: cell-based; conditions: read-out: EC50 hGlucagon-R
T1 construct: expressed in transfected cells; host or cells: HEK-293

in vivo = assay: in vivo; design: species or system mice; conditions: mouse, sc, 1 mg/kg
Experimental: Mice were dosed 1 mg/kg subcutaneously (s.c.). The mice were sacrificed and blood samples were collected after 0.25, 1, 2, 4, 8, 16 and 24 hours post application. Plasma samples were analysed after protein precipitation via liquid chromatography mass spectrometry (LC/MS). PK parameters and half-life were calculated using WinonLin Version 5.2.1 (non-compartment model).
Pharmacokinetic profiles were determined as described in Methods.

physchem = type: physicochemical
human GLP-1 receptor = biological target: T2, human GLP-1 receptor (Homo sapiens, UniProt P43220); assay: cAMP response (HTRF) of HEK-293 cells stably expressing human GLP-1 receptor; type: cell-based; conditions: read-out: EC50 hGLP-1R
T2 construct: expressed in transfected cells; host or cells: HEK-293

[1] = Table 8, comparison testing of position 14

| SMILES | EC50 (human glucagon receptor; Table 5, cAMP, HEK-293) | EC50 (human glucagon receptor; [1]) | Cmax (in vivo) | half-life (in vivo) | solubility at 2 h (physchem; pH 4.5) | solubility at 2 h (physchem; pH 7.4) | EC50 (human GLP-1 receptor; Table 5, cAMP, HEK-293) | EC50 (human GLP-1 receptor; [1]) |
| --- | --- | --- | --- | --- | --- | --- | --- | --- |
| CCCCCCCCCCCCCCCC(=O)N[C@@H](CCC(=O)NCCCC[C@H](NC(=O)[C@H](CCC(N)=O)NC(=O)[C@H](CCCCN)NC(=O)[C@H](CO)NC(=O)[C@H](CC(C)C)NC(=O)[C@H](CC(=O)O)NC(=O)[C@H](CO)NC(=O)[C@@H](NC(=O)[C@H](Cc1ccccc1)NC(=O)[C@@H](NC(=O)CNC(=O)[C@H](CCC(N)=O)NC(=O)[C@@H](CO)NC(=O)[C@@H](N)Cc1c[nH]cn1)[C@@H](C)O)[C@@H](C)O)C(=O)N[C@@H](CC(=O)O)C(=O)N[C@@H](CO)C(=O)N[C@@H](CCCNC(=N)N)C(=O)N[C@@H](CCCNC(=N)N)C(=O)N[C@@H](C)C(=O)N[C@@H](CCC(N)=O)C(=O)N[C@@H](CC(=O)O)C(=O)N[C@@H](Cc1ccccc1)C(=O)N[C@H](C(=O)N[C@@H](CCC(=O)O)C(=O)N[C@@H](Cc1c[nH]c2ccccc12)C(=O)N[C@@H](CC(C)C)C(=O)N[C@@H](CCCCN)C(=O)N[C@@H](CC(N)=O)C(=O)NCC(=O)NCC(=O)N1CCC[C@H]1C(=O)N[C@@H](CO)C(=O)N[C@@H](CO)C(=O)NCC(=O)N[C@@H](C)C(=O)N1CCC[C@H]1C(=O)N1CCC[C@H]1C(=O)N1CCC[C@H]1C(=O)N[C@@H](CO)C(N)=O)[C@@H](C)CC)C(=O)O [compound 97] | 1 pM | 1.2 pM | 2 µg/mL | 3.2 h | > 2 mg/mL | > 2 mg/mL | 3.5 pM | 6.8 pM |
| CCCCCCCCCCCCCCCC(=O)N[C@@H](CCC(=O)NCCCC[C@H](NC(=O)[C@H](CCC(N)=O)NC(=O)[C@H](CCCCN)NC(=O)[C@H](CO)NC(=O)[C@H](CC(C)C)NC(=O)[C@H](CC(=O)O)NC(=O)[C@H](CO)NC(=O)[C@@H](NC(=O)[C@H](Cc1ccccc1)NC(=O)[C@@H](NC(=O)CNC(=O)[C@H](CCC(N)=O)NC(=O)C(C)(C)NC(=O)[C@@H](N)Cc1c[nH]cn1)[C@@H](C)O)[C@@H](C)O)C(=O)N[C@@H](CCC(=O)O)C(=O)N[C@@H](CO)C(=O)N[C@@H](CCCNC(=N)N)C(=O)N[C@@H](CCCNC(=N)N)C(=O)N[C@@H](C)C(=O)N[C@@H](CCC(N)=O)C(=O)N[C@@H](CC(=O)O)C(=O)N[C@@H](Cc1ccccc1)C(=O)N[C@H](C(=O)N[C@@H](CCC(=O)O)C(=O)N[C@@H](Cc1c[nH]c2ccccc12)C(=O)N[C@@H](CC(C)C)C(=O)N[C@@H](CCCCN)C(=O)N[C@@H](CC(N)=O)C(=O)NCC(=O)NCC(=O)N1CCC[C@H]1C(=O)N[C@@H](CO)C(=O)N[C@@H](CO)C(=O)NCC(=O)N[C@@H](C)C(=O)N1CCC[C@H]1C(=O)N1CCC[C@H]1C(=O)N1CCC[C@H]1C(=O)N[C@@H](CO)C(N)=O)[C@@H](C)CC)C(=O)O [compound 117] | 16.5 pM | – | 5 µg/mL | 2.7 h | > 1 mg/mL | > 1 mg/mL | 3.8 pM | – |
| CCCCCCCCCCCCCCCC(=O)N[C@@H](CCC(=O)NCCCC[C@H](NC(=O)[C@H](CCC(N)=O)NC(=O)[C@H](CCCCN)NC(=O)[C@H](CO)NC(=O)[C@H](CC(C)C)NC(=O)[C@H](CC(=O)O)NC(=O)[C@H](CO)NC(=O)[C@@H](NC(=O)[C@H](Cc1ccccc1)NC(=O)[C@@H](NC(=O)CNC(=O)[C@H](CCC(N)=O)NC(=O)[C@@H](CO)NC(=O)[C@@H](N)Cc1c[nH]cn1)[C@@H](C)O)[C@@H](C)O)C(=O)N[C@@H](CCC(=O)O)C(=O)N[C@@H](CO)C(=O)N[C@@H](CCCNC(=N)N)C(=O)N[C@@H](CCCNC(=N)N)C(=O)N[C@@H](C)C(=O)N[C@@H](CCC(N)=O)C(=O)N[C@@H](CC(=O)O)C(=O)N[C@@H](Cc1ccccc1)C(=O)N[C@H](C(=O)N[C@@H](CCC(=O)O)C(=O)N[C@@H](Cc1c[nH]c2ccccc12)C(=O)N[C@@H](CC(C)C)C(=O)N[C@@H](CCCCN)C(=O)N[C@@H](CCCNC(=N)N)C(=O)N[C@H](C)C(=O)NCC(=O)N1CCC[C@H]1C(=O)N[C@@H](CO)C(=O)N[C@@H](CO)C(=O)NCC(=O)N[C@@H](C)C(=O)N1CCC[C@H]1C(=O)N1CCC[C@H]1C(=O)N1CCC[C@H]1C(=O)N[C@@H](CO)C(N)=O)[C@@H](C)CC)C(=O)O [compound 126] | 6.8 pM | – | 3.16 µg/mL | 1.5 h | > 1 mg/mL | > 1 mg/mL | 6.6 pM | – |
